Measured values published in ChEMBL document CHEMBL1148440, “4-(tetralin-1-yl)- and 4-(naphthalen-1-yl)alkyl derivatives of 1-cyclohexylpiperazine as sigma receptor ligands with agonist sigma2 activity” (J Med Chem, 2004).

Sequences of proteins named here, by UniProt entry; tags and fusion partners are left off.
UniProt Q99720, whole entry: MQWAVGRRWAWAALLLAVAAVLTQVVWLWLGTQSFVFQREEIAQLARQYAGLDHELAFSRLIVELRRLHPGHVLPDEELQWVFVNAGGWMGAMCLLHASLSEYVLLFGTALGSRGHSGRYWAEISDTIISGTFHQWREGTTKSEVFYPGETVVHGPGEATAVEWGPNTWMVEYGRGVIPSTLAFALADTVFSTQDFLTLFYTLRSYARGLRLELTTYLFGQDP

Target: Sigma non-opioid intracellular receptor 1 (Homo sapiens) (UniProt Q99720)
Assay: Binding affinity ratio of sigma 1 receptor to that of sigma 2 receptor
Procedure, shortened: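 Sigma-1 binding used guinea pig brain membranes without cerebellum with (+)-[3H]pentazocine. […] IC50 came from 6–9 drug concentrations in two or three experiments with duplicate samples, then converted to apparent Ki. Ratios are computed from these Ki values.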

## Oc1cccc2c1CCCC2CCCN1CCN(C2CCCCC2)CC1 (stereo unspecified)
  Ratio: 2
